Data set [1] can be described thus: Cynomolgous monkey PK (obese monkeys). The settings on record: single s.c., 0.004 mg/kg.
A short description of another data set: Mouse PK (DIO mice). To be noted: s.c.

The values below come from US20240247042A1, “GLUCAGON LIKE PEPTIDE COMPOUNDS” (Novartis AG, priority 2021, published 2024).

Regarding semaglutide, in data set [1], the Cmax (usually the highest concentration seen after dosing) stood at 7.11 ± 2.2 nM; the T1/2 was found to be 67.2 ± 4.8 h; the time of peak concentration (Tmax) (in general, the time at which the peak concentration occurs) was determined as 24 ± 0 h. For the same substance, in the data set “Mouse PK (DIO mice)”, the T1/2 was 8.4 ± 2.2 h and the Tmax is 5.04 ± 1.7 h.
